Laboratory results reported in US20130040893A1, “TREATMENT OF PROLIFERATIVE DISORDERS” (TETRALOGIC PHARMACEUTICALS CORPORATION, priority 2005, published 2013).
pIC50: −log10 of the molar value.

Amino acid sequences for entries named in this document (tags omitted). Residues count along the entry.
UniProt P98170, 241-356 limits assumed: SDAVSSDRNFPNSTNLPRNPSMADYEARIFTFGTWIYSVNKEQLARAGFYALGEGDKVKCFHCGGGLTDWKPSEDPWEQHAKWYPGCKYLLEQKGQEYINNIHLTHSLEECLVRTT
UniProt Q13490, 266-352 limits assumed: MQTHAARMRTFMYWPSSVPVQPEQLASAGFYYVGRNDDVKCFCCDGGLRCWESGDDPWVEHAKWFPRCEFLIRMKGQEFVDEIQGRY

Columns and labels:
[1] = target: BIR-3 domain of XIAP (Homo sapiens, UniProt P98170); assay: Fluorescence polarization binding assay, XIAP BIR-3 domain
[2] = target: BIR-3 domain of cIAP-1 (Homo sapiens, UniProt Q13490); assay: Fluorescence polarization binding assay, cIAP-1 BIR-3 domain

pIC50 [1]	pIC50 [2]	SMILES
7.00 to 8.00	–	CC(C)[C@H](NC(=O)[C@H](C)N)C(=O)N1CCC[C@H]1C(=O)N[C@@H](Cc1ccccc1)C(=O)O [AVPF, reference compound]
–	7.00 to 8.00	CC[C@H](C)[C@H](NC(=O)[C@@H]1CCCN1C(=O)[C@@H](NC(=O)[C@H](C)N)C(C)C)C(=O)O [AVPI, reference compound]
